## Ab-14 heavy chain CDR variants: yeast mating affinities

The measurements come from Engelhart et al. 2022 (doi:10.1038/s41597-022-01779-4) through the FLAb antibody collection.

All variants were tested on one target, the spike HR2 peptide PDVDLGDISGINAS (SARS-CoV-2).

Parent scFv Ab-14: VH joined to VL by the linker GGGGSGGGGSGGGGS. Changes lie in the heavy chain CDRs alone.
VH: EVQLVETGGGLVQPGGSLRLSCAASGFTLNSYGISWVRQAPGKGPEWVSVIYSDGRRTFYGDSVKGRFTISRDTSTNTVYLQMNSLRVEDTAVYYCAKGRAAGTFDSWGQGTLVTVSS
VL: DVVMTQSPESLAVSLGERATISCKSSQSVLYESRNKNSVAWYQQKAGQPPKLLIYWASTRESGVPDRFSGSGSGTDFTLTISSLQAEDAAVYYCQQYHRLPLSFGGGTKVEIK

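Phage display of a naive human antibody library on the peptide gave the parent. AAYL49 was designed without a model: most single CDR substitutions and a random sample of double and triple ones. Affinity was read by AlphaSeq, a pooled yeast mating assay with surface-displayed partners. Mating (16 h, 30 °C) was followed by selection of diploids and sequencing of their barcodes. The ratio of observed to expected reads was calibrated, replicate by replicate, on BCL2-family standards whose Kd was known from biolayer interferometry. Each pool was mated in three replicate cultures.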

Changes read parent residue, position, new residue, counted from the first residue of the VH shown. This list gathers variants with a substitution at Y52 (VH, numbered from residue 1). Affinities are written as log10 Kd with Kd in nM; a lower number is a better binder. Replicates are averaged; those with no signal do not enter the mean. A pair that was not seen in that replicate is written "nd"; this usually means weak binding, but a binder can also be missed. Three control strains display no target. For library AAYL49, 15% of the pairings with them gave a signal, with a median of 4.06 and one signal in twenty below 2.83, so weak values seen in few replicates may be background. In this assay the parent's reference entry averaged 0.65; its copy inside this library read 4.11 (one replicate of three).

Variant V50T+Y52T+T104M showed nd, nd, 4.50. Variant Y52F+G55P+G61T showed 4.54, nd, nd. For Y32G+Y52A+G55S, the assay gave 3.94, 4.14, 4.47 (mean 4.18). For Y52E+V64F+D106M, the assay gave nd, 3.68, nd. Variant Y32H+Y52T+R57I gave nd, nd, nd.

With Y52A+R100K the result was nd, 3.17, nd. Variant I51V+Y52E+D106C showed nd, 3.67, nd. Variant Y52L+Y60S gave 4.72, nd, nd. Variant L29Q+Y52W+V64G showed nd, nd, nd. With S35H+Y52E+G55Y the result was nd, nd, 4.56.

For Y52P+R57I+S107T, the assay gave 5.26, nd, 3.41 (mean 4.34). Variant Y32H+Y52C+K65D gave nd, 3.60, nd. Variant T28F+Y32D+Y52D showed nd, nd, nd. Variant Y32C+Y52H+G55F showed nd, 3.65, nd. With G26L+Y52H+Y60T the result was nd, nd, nd.

Variant Y52C+D54I+K65W showed nd, nd, nd. Variant L29F+Y52H+G61W gave nd, nd, nd. With I34W+Y52I+S53Q the result was nd, nd, nd. Variant Y32L+V50R+Y52E showed nd, nd, nd. Variant I34D+Y52A+G61M showed nd, nd, 2.82.

Variant L29E+Y52E+K65V showed nd, nd, nd. Variant Y52Q+R57Y+Y60N showed nd, nd, 4.97. Variant Y52C+F59D gave nd, 4.96, nd. Variant Y52H+T104E+F105L gave nd, nd, nd. For Y52W+S53R+G55F, the assay gave nd, nd, nd.

Variant Y52Q+D54P+F59D gave nd, 4.52, nd. For S35V+Y52C+G61F, the assay gave nd, nd, nd. With L29F+Y52K the result was nd, nd, nd. Variant Y52T+R56W+A101K showed nd, nd, nd. Variant Y52E+A101V+G103E gave nd, nd, nd.

With N30T+Y52K+D106Q the result was nd, nd, nd. Variant Y52V+Y60G+F105V showed nd, nd, nd. Variant N30L+V50T+Y52C gave nd, 2.80, nd. For S31Q+Y52A, the assay gave 2.79, 1.83, 2.54 (mean 2.39). Variant Y52M+D62L gave 4.48, nd, nd.

Variant F27H+Y52Q+D54C showed 5.05, nd, nd. With T28S+Y52M+G103H the result was nd, 3.62, nd. Variant N30D+Y52T gave 4.28, 3.32, 3.33 (mean 3.65). Variant T28E+Y52N gave 4.10, nd, 4.98 (mean 4.54).

The 3 strongest on average among those seen in every replicate, once more:

{"changes": "S31Q+Y52A", "replicates, log10 nM": "2.79, 1.83, 2.54", "mean log10 Kd (nM)": "2.39"}
{"changes": "N30D+Y52T", "replicates, log10 nM": "4.28, 3.32, 3.33", "mean log10 Kd (nM)": "3.65"}
{"changes": "Y32G+Y52A+G55S", "replicates, log10 nM": "3.94, 4.14, 4.47", "mean log10 Kd (nM)": "4.18"}